Measured values as given in patent US10011599B2 (priority 2013, dated 2018).

System: A375 cells
Experiment: cells
Settings: Homo sapiens, A-375, 72 h, read-out: A375 XTT IC50 uM

SMILES | IC50 [µM]
COc1cc(Oc2ncccn2)ccc1-c1cc2c(cc1F)ncc1nc(C)n([C@H]3CCN(C(=O)CO)C[C@@H]3F)c12 [Example 88, 1-((3S,4S)-3-fluoro-4-(7-fluoro-8-(2-methoxy-4-(pyrimidin-2-yloxy)phenyl)-2-methyl-1H-imidazo[4,5-c]quinolin-1-yl)piperidin-1-yl)-2-hydroxyethanone] | 0.108
Cc1nc2cnc3cc(F)c(-c4ccc(Oc5nccc(C(F)(F)F)n5)cc4Cl)cc3c2n1[C@H]1CCN(C(=O)CO)C[C@@H]1F [Example 51, 1-((3S,4S)-4-(8-(2-chloro-4-((4-(trifluoromethyl)pyrimidin-2-yl)oxy)phenyl)-7-fluoro-2-methyl-1H-imidazo[4,5-c]quinolin-1-yl)-3-fluoropiperidin-1-yl)-2-hydroxyethanone] | 0.004
Cc1nc2cnc3cc(F)c(-c4ccc(Oc5ncccn5)cc4Cl)cc3c2n1C1CCN(C(=O)C(CO)CO)CC1 [Example 22, 1-(4-(8-(2-chloro-4-(pyrimidin-2-yloxy)phenyl)-7-fluoro-2-methyl-1H-imidazo[4,5-c]quinolin-1-yl)piperidin-1-yl)-3-hydroxy-2-(hydroxymethyl)propan-1-one] | > 10
Cc1nc2cnc3cc(F)c(-c4ccc(Oc5ncccn5)cc4Cl)cc3c2n1C1CCN(C(=O)CO)CC1 [Example 14, 1-(4-(8-(2-chloro-4-(pyrimidin-2-yloxy)phenyl)-7-fluoro-2-methyl-1H-imidazo[4,5-c]quinolin-1-yl)piperidin-1-yl)-2-hydroxyethanone] | 0.076
COCC(=O)N1CCC(n2c(C)nc3cnc4cc(F)c(-c5ccc(Oc6nccc(C)n6)cc5Cl)cc4c32)CC1 [Example 67, 1-(4-(8-(2-chloro-4-((4-methylpyrimidin-2-yl)oxy)phenyl)-7-fluoro-2-methyl-1H-imidazo[4,5-c]quinolin-1-yl)piperidin-1-yl)-2-methoxyethanone] | 0.281
Cc1nc2cnc3cc(F)c(-c4ccc(Oc5ncccn5)cc4Cl)cc3c2n1C1CCN(C(=O)[C@H](C)O)CC1 [Example 34, (S)-1-(4-(8-(2-chloro-4-(pyrimidin-2-yloxy)phenyl)-7-fluoro-2-methyl-1H-imidazo[4,5-c]quinolin-1-yl)piperidin-1-yl)-2-hydroxypropan-1-one] | 0.212
Cc1nc(Oc2ccc(-c3cc4c(cc3F)ncc3nc(C)n([C@H]5CCN(C(=O)CO)C[C@@H]5F)c34)c(Cl)c2)ncc1F [Example 53, 1-((3S,4S)-4-(8-(2-chloro-4-((5-fluoro-4-methylpyrimidin-2-yl)oxy)phenyl)-7-fluoro-2-methyl-1H-imidazo[4,5-c]quinolin-1-yl)-3-fluoropiperidin-1-yl)-2-hydroxyethanone] | 0.012
Cc1nc2cnc3cc(F)c(-c4ccc(Oc5ncccn5)cc4Cl)cc3c2n1C1CCN(C(N)=O)CC1 [Example 30] | 0.014
COCC(=O)N1CCC(n2c(C)nc3cnc4cc(F)c(-c5ccc(Oc6ncccn6)cc5Cl)cc4c32)CC1 [Example 42, 1-(4-(8-(2-chloro-4-(pyrimidin-2-yloxy)phenyl)-7-fluoro-2-methyl-1H-imidazo[4,5-c]quinolin-1-yl)piperidin-1-yl)-2-methoxyethanone] | 0.208
CC(=O)N1CCC(n2c(C)nc3cnc4cc(F)c(-c5ccc(Oc6ncccn6)cc5Cl)cc4c32)CC1 [Example 12, 1-(4-(8-(2-chloro-4-(pyrimidin-2-yloxy)phenyl)-7-fluoro-2-methyl-1H-imidazo[4,5-c]quinolin-1-yl)piperidin-1-yl)ethanone] | 0.414
Cc1nc2cnc3cc(F)c(-c4ccc(Oc5ncccn5)cc4Cl)cc3c2n1C1CCS(=O)(=O)CC1 [Example 55, 4-(8-(2-chloro-4-((4-methylpyrimidin-2-yl)oxy)phenyl)-7-fluoro-2-methyl-1H-imidazo[4,5-c]quinolin-1-yl)tetrahydro-2H-thiopyran 1,1-dioxide] | 0.319
Cc1nc2cnc3cc(F)c(-c4ccc(Oc5nccc(CO)n5)cc4Cl)cc3c2n1[C@H]1CCN(C(=O)CO)C[C@@H]1F [Example 89, 1-((3S,4S)-4-(8-(2-chloro-4-((4-(hydroxymethyl)pyrimidin-2-yl)oxy)phenyl)-7-fluoro-2-methyl-1H-imidazo[4,5-c]quinolin-1-yl)-3-fluoropiperidin-1-yl)-2-hydroxyethanone] | 0.045
Cc1ccnc(Oc2ccc(-c3cc4c(cc3F)ncc3nc(C)n(C5CCN(C(=O)CO)CC5)c34)c(Cl)c2)n1 [Example 28, 1-(4-(8-(2-chloro-4-((4-methylpyrimidin-2-yl)oxy)phenyl)-7-fluoro-2-methyl-1H-imidazo[4,5-c]quinolin-1-yl)piperidin-1-yl)-2-hydroxyethanone] | 0.0048
Cc1nc2cnc3cc(F)c(-c4ccc(Oc5ncccn5)cc4Cl)cc3c2n1C1CCN(C(=O)N(C)C)CC1 [Example 11, 4-(8-(2-chloro-4-(pyrimidin-2-yloxy)phenyl)-7-fluoro-2-methyl-1H-imidazo[4,5-c]quinolin-1-yl)-N,N-dimethylpiperidine-1-carboxamide] | 6.55
Cc1nc2cnc3cc(F)c(-c4ccc(Oc5ncccn5)cc4Cl)cc3c2n1C1CCN(C(=O)C(C)O)CC1 (stereo not shown) [Example 6, 1-(4-(8-(2-chloro-4-(pyrimidin-2-yloxy)phenyl)-7-fluoro-2-methyl-1H-imidazo[4,5-c]quinolin-1-yl)piperidin-1-yl)-2-hydroxypropan-1-one] | 0.232
Cc1nc2cnc3cc(F)c(-c4ccc(Oc5ncccn5)cc4Cl)cc3c2n1C1CCN(C(=O)NCC(F)(F)F)CC1 [Example 45, 4-(8-(2-chloro-4-(pyrimidin-2-yloxy)phenyl)-7-fluoro-2-methyl-1H-imidazo[4,5-c]quinolin-1-yl)-N-(2,2,2-trifluoroethyl)piperidine-1-carboxamide] | 4.27

Continued, values first:

IC50 [µM] | SMILES
0.135 | Cc1nc2cnc3cc(F)c(-c4ccc(Oc5ncccn5)cc4F)cc3c2n1[C@H]1CCN(C(=O)CO)C[C@@H]1F [Example 92, 1-((3S,4S)-3-fluoro-4-(7-fluoro-8-(2-fluoro-4-(pyrimidin-2-yloxy)phenyl)-2-methyl-1H-imidazo[4,5-c]quinolin-1-yl)piperidin-1-yl)-2-hydroxyethanone]
0.031 | Cc1nc2cnc3cc(F)c(-c4ccc(Oc5ncccn5)cc4Cl)cc3c2n1[C@H]1CCN(C(=O)[C@H](C)O)C[C@@H]1F [Example 95, (S)-1-((3S,4S)-4-(8-(2-chloro-4-(pyrimidin-2-yloxy)phenyl)-7-fluoro-2-methyl-1H-imidazo[4,5-c]quinolin-1-yl)-3-fluoropiperidin-1-yl)-2-hydroxypropan-1-one]
0.005 | Cc1nc2cnc3cc(F)c(-c4ccc(Oc5ncccn5)cc4Cl)cc3c2n1[C@H]1CCN(C(N)=O)C[C@@H]1F [Example 94, (3S,4S)-4-(8-(2-chloro-4-(pyrimidin-2-yloxy)phenyl)-7-fluoro-2-methyl-1H-imidazo[4,5-c]quinolin-1-yl)-3-fluoropiperidine-1-carboxamide]
0.061 | CC(=O)N1CC[C@H](n2c(C)nc3cnc4cc(F)c(-c5ccc(Oc6ncccn6)cc5Cl)cc4c32)[C@@H](F)C1 [Example 93, 1-((3S,4S)-4-(8-(2-chloro-4-(pyrimidin-2-yloxy)phenyl)-7-fluoro-2-methyl-1H-imidazo[4,5-c]quinolin-1-yl)-3-fluoropiperidin-1-yl)ethanone]
0.02 | Cc1cc(Oc2ncccn2)ccc1-c1cc2c(cc1F)ncc1nc(C)n([C@H]3CCN(C(=O)CO)C[C@@H]3F)c12 [Example 90, 1-((3S,4S)-3-fluoro-4-(7-fluoro-2-methyl-8-(2-methyl-4-(pyrimidin-2-yloxy)phenyl)-1H-imidazo[4,5-c]quinolin-1-yl)piperidin-1-yl)-2-hydroxyethanone]
0.067 | Cc1nc2cnc3cc(F)c(-c4ccc(Oc5ncccn5)cc4Cl)cc3c2n1[C@H]1CCN(S(C)(=O)=O)C[C@@H]1F [Example 50, 8-(2-chloro-4-(pyrimidin-2-yloxy)phenyl)-7-fluoro-1-((3S,4S)-3-fluoro-1-(methylsulfonyl)piperidin-4-yl)-2-methyl-1H-imidazo[4,5-c]quinoline]
0.557 | Cc1nc2cnc3cc(F)c(-c4ccc(Oc5ncccn5)cc4Cl)cc3c2n1[C@H]1CCN(C(=O)CCO)C[C@@H]1F [Example 98, 1-((3S,4S)-4-(8-(2-chloro-4-(pyrimidin-2-yloxy)phenyl)-7-fluoro-2-methyl-1H-imidazo[4,5-c]quinolin-1-yl)-3-fluoropiperidin-1-yl)-3-hydroxpropan-1-one]
2.09 | Cc1nc2cnc3cc(F)c(-c4ccc(Oc5ncccn5)cc4Cl)cc3c2n1C1CCN(S(=O)(=O)N(C)C)CC1 [Example 10, 4-(8-(2-chloro-4-(pyrimidin-2-yloxy)phenyl)-7-fluoro-2-methyl-1H-imidazo[4,5-c]quinolin-1-yl)-N,N-dimethylpiperidine-1-sulfonamide]
0.755 | Cc1nc2cnc3cc(F)c(-c4ccc(Oc5ncccn5)cc4Cl)cc3c2n1C1CCN(S(=O)(=O)C(C)C)CC1 [Example 9, 8-(2-chloro-4-(pyrimidin-2-yloxy)phenyl)-7-fluoro-1-(1-(isopropylsulfonyl)piperidin-4-yl)-2-methyl-1H-imidazo[4,5-c]quinoline]
0.159 | COCC(=O)N1CC[C@H](n2c(C)nc3cnc4cc(F)c(-c5ccc(Oc6ncccn6)cc5Cl)cc4c32)[C@@H](F)C1 [Example 52, 1-((3S,4S)-4-(8-(2-chloro-4-(pyrimidin-2-yloxy)phenyl)-7-fluoro-2-methyl-1H-imidazo[4,5-c]quinolin-1-yl)-3-fluoropiperidin-1-yl)-2-methoxyethanone]
0.321 | Cc1nc2cnc3cc(F)c(-c4ccc(Oc5ncccn5)cc4Cl)cc3c2n1C1CCN(S(C)(=O)=O)CC1 [Example 5, 8-(2-chloro-4-(pyrimidin-2-yloxy)phenyl)-7-fluoro-2-methyl-1-(1-(methylsulfonyl)piperidin-4-yl)-1H-imidazo[4,5-c]quinoline]
0.319 | Cc1nc2cnc3cc(F)c(-c4ccc(Oc5ncccn5)cc4Cl)cc3c2n1C1CCN(S(=O)(=O)C2CC2)CC1 [Example 8, 8-(2-chloro-4-(pyrimidin-2-yloxy)phenyl)-1-(1-(cyclopropylsulfonyl)piperidin-4-yl)-7-fluoro-2-methyl-1H-imidazo[4,5-c]quinoline]
